Measured values reported in US20110236822A1, “METHOD OF TREATING SEASONED DEVELOPER SOLUTION” (priority 2010, published 2011).

Key:
[1] = Treatment of IR dye with oxidative and reducing reagents to degrade the dye (TABLE I); format: physicochemical
[2] = Attempt to precipitate the anionic chromophore of IR Dye I as insoluble salts; format: physicochemical; settings: IR Dye I 0.3% in methanol; 3% solution of compound in water

Substance	Change Noticed [1]	precipitation of IR Dye I [2]
Ammonium thiosulfate	Dye bleached pink	
Cl-Peroxy benzoic acid	Dye bleached pink	
Manganous nitrate	Black	
barium chloride		None of these compounds precipitated IR Dye I
